Antibody variant affinities, Ab-14 light chain, assay B

The measurements come from Li et al. 2023 (doi:10.1038/s41467-023-39022-2) through the FLAb antibody collection.

Target peptide (SARS-CoV-2 spike, HR2 region): PDVDLGDISGINAS

Parent: Ab-14, a human scFv built as VH, a 15-residue (Gly4Ser)3 linker, VL. Only the CDRs of the light chain vary.
VH: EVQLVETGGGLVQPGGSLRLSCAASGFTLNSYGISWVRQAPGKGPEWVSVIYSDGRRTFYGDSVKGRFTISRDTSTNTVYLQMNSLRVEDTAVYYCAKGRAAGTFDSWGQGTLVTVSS
VL: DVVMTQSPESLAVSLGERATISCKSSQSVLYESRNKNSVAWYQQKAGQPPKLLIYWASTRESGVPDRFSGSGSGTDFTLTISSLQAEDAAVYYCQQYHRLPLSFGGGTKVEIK

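Designed CDR sequences, proposed from the first random library and measured here. Group labels follow the data file (Ctrl: baseline library sampled from a position-specific scoring matrix, with some repeated check sequences; GP: Gaussian process model; HC: hill climbing; Gen: genetic algorithm; a sequence that several methods proposed may carry one label only). The scFvs were displayed on barcoded MATa yeast, the peptide on MATalpha yeast. Binding brings cells together so that they mate, and sequencing counts the barcode pairs among the diploids. Read counts were normalised to the haploid input and turned into Kd by a linear fit to BCL2-family pairs of known affinity, for each replicate. Each pool was mated in six replicate cultures.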

Changes read parent residue, position, new residue, counted from the first residue of the VL shown.
This list holds designs with at most six substitutions.
Scale: log10 of Kd in nM, estimated from mating counts; low values are strong binders.
Replicates are averaged; those with no signal do not enter the mean.
An entry "nd" has no value in the source: the pair was not observed among the diploids in any replicate. This suggests poor binding but is not conclusive.
Empty control strains, which show no peptide, gave a signal in 4% of pairings with all light chain designs; the median was 2.64 and 95% of these signals were weaker than 1.59. No background was subtracted. Also given: how often the same scFv was detected with the empty control strains.

For S25F W56G T59Q [GP_Gen], the assay gave -0.11 (6 of 6 replicates; controls 2 of 18).
For S25L S26P W56N T59Q E61L [GP_Gen], the assay gave -0.23 (6 of 6 replicates; controls 1 of 18).
For S25T S26P S28G W56G T59Q [GP_HC], the assay gave 0.40 (6 of 6 replicates; controls 2 of 18).
For S25L S26M V29D W56N [GP_Gen], the assay gave -0.06 (6 of 6 replicates; controls 1 of 18).
For S25L N35M S38N W56A [GP_Gen], the assay gave 0.47 (6 of 6 replicates; controls 2 of 18).
For S38I W56S [Ctrl], the assay gave 1.46 (1 of 6 replicates; controls 2 of 18).
For S25V Q27I V29G N35M W56E [GP_HC], the assay gave -0.13 (6 of 6 replicates; controls 1 of 18).
For K24H Q27P L30E W56N T59I [GP_HC], the assay gave 0.80 (6 of 6 replicates; controls 0 of 18).
For S25V S26D W56D [GP_Gen], the assay gave 0.50 (6 of 6 replicates; controls 0 of 18).
For S25L S33E K36C W56N T59Q [GP_Gen], the assay gave 0.32 (6 of 6 replicates; controls 2 of 18).
For S25L V29D W56N S62V [GP_Gen], the assay gave -0.25 (6 of 6 replicates; controls 0 of 18).
For S25G W56E R99I [Ctrl], the assay gave 0.51 (6 of 6 replicates; controls 0 of 18).
For Q27M S28L W56Y S62W [Ctrl], the assay gave nd (0 of 6 replicates; controls 0 of 18).
For Q27I V29Y Y31A W56E [GP_HC], the assay gave -0.07 (6 of 6 replicates; controls 0 of 18).
For S25L S26Y V29E W56N E61L [GP_Gen], the assay gave -0.17 (6 of 6 replicates; controls 1 of 18).
For S25F S26E V29E W56E [GP_Gen], the assay gave -0.48 (6 of 6 replicates; controls 1 of 18).
For S25L S33Q W56N E61L [GP_Gen], the assay gave -0.06 (6 of 6 replicates; controls 2 of 18).
For N35Y S103G [Ctrl], the assay gave 2.04 (1 of 6 replicates; controls 0 of 18).
For K24H W56N S62V [GP_HC], the assay gave 0.23 (6 of 6 replicates; controls 2 of 18).
For Q27G V29F W56E [GP_HC], the assay gave -0.03 (6 of 6 replicates; controls 2 of 18).
For K24V L100D [Ctrl], the assay gave nd (0 of 6 replicates; controls 0 of 18).
For S25C Y31E [Ctrl], the assay gave 0.94 (6 of 6 replicates; controls 2 of 18).
For S25L S26Y W56N Q96D [GP_Gen], the assay gave 0.31 (6 of 6 replicates; controls 0 of 18).
For S25L L30Q W56D [GP_Gen], the assay gave -0.54 (6 of 6 replicates; controls 0 of 18).
For V29W W56G T59Q S62N [GP_HC], the assay gave 0.69 (5 of 6 replicates; controls 1 of 18).
For S25L Q27E W56N E61L [GP_Gen], the assay gave 0.09 (6 of 6 replicates; controls 1 of 18).
For S25L S26Q W56N T59Y E61L [GP_Gen], the assay gave 0.20 (6 of 6 replicates; controls 1 of 18).
For K24V Y31G N35Q W56Q [Ctrl], the assay gave 0.82 (6 of 6 replicates; controls 1 of 18).
For S25L S62N [Ctrl], the assay gave -0.11 (6 of 6 replicates; controls 0 of 18).
For S25F K36P [Ctrl], the assay gave 0.43 (6 of 6 replicates; controls 0 of 18).
For Q27P V29Y E32N W56N [Ctrl], the assay gave 0.17 (6 of 6 replicates; controls 0 of 18).
For S25Y V29W K36F N37W W56G [GP_HC], the assay gave 0.52 (6 of 6 replicates; controls 0 of 18).
For S25L V29M W56N T59Q S62M [GP_Gen], the assay gave 0.29 (6 of 6 replicates; controls 1 of 18).
For S25F Q27M V29G S33Q R34S T59I [Ctrl], the assay gave 0.68 (6 of 6 replicates; controls 2 of 18).
For S25L V29M K36S W56N [GP_Gen], the assay gave -0.68 (6 of 6 replicates; controls 0 of 18).
For S25L W56A [Ctrl+GP_Gen], the assay gave 0.17 (12 of 12 replicates; controls 0 of 36).
For K24V V29W W56G [GP_HC], the assay gave -0.09 (6 of 6 replicates; controls 1 of 18).
For V29Q K36F W56H S62D [GP_HC], the assay gave 0.36 (6 of 6 replicates; controls 0 of 18).
For Q27P W56A A57V [Ctrl], the assay gave 0.88 (6 of 6 replicates; controls 1 of 18).
For K24H S25Q Q27P V29E S38N W56N [GP_HC], the assay gave -0.29 (6 of 6 replicates; controls 1 of 18).
For V29C Y31N N37D [Ctrl], the assay gave 2.15 (6 of 6 replicates; controls 0 of 18).
For S25L S33Q W56E Q96D [GP_Gen], the assay gave 0.37 (6 of 6 replicates; controls 0 of 18).
For S25L W56E E61L S62Q [GP_Gen], the assay gave 0.39 (6 of 6 replicates; controls 0 of 18).
For S26L V29Q L30G W56H S62D [GP_HC], the assay gave 0.18 (6 of 6 replicates; controls 2 of 18).
For K24Y [Ctrl], the assay gave 2.20 (11 of 30 replicates; controls 2 of 90).
For S28T V29W [Ctrl], the assay gave 1.47 (5 of 6 replicates; controls 1 of 18).
For W56H A57G H98S [Ctrl], the assay gave 0.77 (6 of 6 replicates; controls 0 of 18).
For S28T S33M L100N [Ctrl], the assay gave nd (0 of 6 replicates; controls 1 of 18).

From the list, the first 3 with no signal in any replicate:

| changes | group | mean log10 Kd (nM) | detected | signal with controls |
|---|---|---|---|---|
| Q27M S28L W56Y S62W | Ctrl | nd | 0 of 6 | 0 of 18 |
| K24V L100D | Ctrl | nd | 0 of 6 | 0 of 18 |
| S28T S33M L100N | Ctrl | nd | 0 of 6 | 1 of 18 |

The range of this assay differs from that of the first round, and the authors advise against merging the two.
Of ten entries with the parent sequence, four were seen in most replicates (averages 0.34 to 2.37), three in one and three in none, so single entries are noisy.
Where one sequence has several entries in the source, the replicates are pooled.
The authors averaged sequences with at least three values out of six and counted those with two or fewer as poor binders.